{"source": "patent US20050282755A1", "about": "“Compositions having antimicrobial activity and uses thereof” (priority 2004, published 2005)", "key": {"S. aureus (Rosenbach)": {"tested_on": "S. aureus (Rosenbach)", "test": "Broth microdilution assay for MIC (20% TSB, 50 mM Na2CO3, 1 mM MgCl2), Table 4A", "format": "cell-based, Staphylococcus aureus", "conditions": "3 log or greater reduction in bacterial growth over 16 hours", "experimental": "(§1) S. dublin (Lane), S. aureus (Rosenbach), P. acnes, ATCC 6919, E. coli K12 TOP10, and E. coli K12 55099 (protease neg.) bacterial strains were tested in the microbial inhibition assays described hereafter. The S. dublin (Lane), and S. aureus (Rosenbach) strains are available from ATCC (Staphylococcus aureus subsp. aureus Rosenbach (Number: 13150) and Salmonella choleraesuis serotype dublin (Number: 39184)). The strain of P. acnes was purchased from ATCC (strain #6919) (Manassas, Va.). The E. coli K12 strains TOP 10 and 55099 were purchased from Invitrogen (Carlsbad, Calif.) and ATCC respectively. HeLa cells were purchased from ATCC (CCL2). Tryptic soy broth (TSB), Brucella broth, reinforced Clostridial broth and agar were purchased from Becton & Dickinson (distributed by VWR, West Chester, Pa.). All plastic consumables were purchased from VWR (West Chester, Pa.). […]\n(§2) The minimum inhibitory concentration (MIC) of peptide compositions for S. aureus, S. dublin and E. coli was determined in a broth microdilution assay. […] The MIC for each peptide for each microorganism was determined by three methods. The growth of bacteria was directly determined by measuring the absorption at 600 nm using a Versamax microplate reader (Molecular Devices). […] After incubation for 16 hours at 37° C. bacterial growth was evaluated and documented (Alpha Innotech gel documentation system)."}, "S. dublin (Lane)": {"tested_on": "S. dublin (Lane)", "test": "Broth microdilution assay for MIC, Table 4A", "format": "cell-based, Salmonella dublin", "conditions": "3 log or greater reduction in bacterial growth over 16 hours", "experimental": "as §1, §2"}, "P. acnes, ATCC 6919": {"tested_on": "P. acnes, ATCC 6919", "test": "Broth microdilution assay for P. acnes MBC, Table 4B", "format": "cell-based, Propionibacterium acnes", "conditions": "3 log or greater reduction in CFU/milliliter after 2.5 hours", "source_text": "The strain of P. acnes was purchased from ATCC (strain #6919) (Manassas, Va.). […] HeLa cells were purchased from ATCC (CCL2). Tryptic soy broth (TSB), Brucella broth, reinforced Clostridial broth and agar were purchased from Becton & Dickinson (distributed by VWR, West Chester, Pa.). All plastic consumables were purchased from VWR (West Chester, Pa.). Chemicals were purchased from Sigma Aldrich (St. Louis, Mo.). DMEM, antibiotics and cell culture supplements were purchased from Invitrogen (Carlsbad, Calif.), fetal calf serum (FCS) was purchased from Hyclone (Logan, Utah). […] For propagation in liquid culture individual colonies were inoculated in […] of TSB broth for 16 hours at 37° C. under constant shaking. P. acnes was grown on Brucella broth blood agar plates (supplemented with 5% defibrinated sheep blood, […] hemin and […] vitamin K) under anaerobic conditions (GasPak system, Becton & Dickinson) for 96 hours at 37° C. For propagation in liquid culture individual colonies were inoculated in […] of reinforced Clostridial broth under anaerobic conditions for 72 hours at 37° C. […] The minimum bactericidal concentration (MBC) of peptide compositions for P. acnes was determined in a microdilution assay. […] The appearance of bacterial colonies was evaluated and documented."}, "human red blood cells": {"tested_on": "human red blood cells", "format": "cell-based", "conditions": "red cells of human, 100 Micromolar", "experimental": "Hemoglobin-release assays with human red blood cells (RBC) were performed to determine the hemolytic activity of granulysin peptides. Human RBCs (San Diego Blood Bank, San Diego, Calif.) were washed three times in PBS buffer (8 mM Na2HPO4, 1.5 mM KH2PO4, 140 mM NaCl and 2.7 mM KCl, pH 7.4), resuspended in PBS to the concentration of 5% (v/v). The RBC were then exposed to different peptide compositions at various concentrations (100-6.25 micromolar) and incubated at 37° C. for 60 minutes in a total volume of 120 microliters. Every experiment included a negative control without peptide and maximum control treated with 5% TX-100 for complete hemoglobin release. Samples were centrifuged for 1 minute at 13,000 g to remove debris and intact cells. The hemoglobin-containing supernatant was removed and transferred to a microwell plate. Hemoglobin release was quantified at A540 using a Versamax plate reader (Molecular Devices). The degree of hemolysis is expressed as percentage of hemolysis compared to the […], using the following formula: % hemolysis=(sample−neg. control)/(max. control−neg. control)×100."}, "[1]": {"tested_on": "Propionibacterium acnes ATCC 6919", "format": "cell-based", "experimental": "A second method that was used to determine the MIC in P. acnes for selected antimicrobial agents was a non-standard broth microdilution method that used an assay buffer composed of reinforced Clostridial broth. Briefly, a log-phase bacterial culture of P. acnes was used to inoculate wells of a 96-well plate so that the final inoculum for each well contained 5×10^5 to 1×10^6 CFU/milliliter. […] Plates were incubated for 48-72 hours at 37° C. in a GasPak anaerobic chamber. The lowest concentration of peptide that contained no visible growth as evidenced by a lack of turbidity when compared to the control (no peptide) was determined as the MIC. MIC values that utilized this method of MIC determination are indicated in Table 9 with a subscript letter “d.”"}, "E. coli K12 TOP10": {"tested_on": "E. coli K12 TOP10", "conditions": "3 log or greater reduction in bacterial growth over 16 hours"}, "[2]": {"tested_on": "E. coli K12 55099 (protease neg.)", "conditions": "3 log or greater reduction in bacterial growth over 16 hours"}, "[3]": {"tested_on": "Staphylococcus aureus ATCC 29213", "conditions": "ATCC 29213, pH 7.4"}, "Salmonella dublin (Lane)": {"tested_on": "Salmonella dublin (Lane)", "conditions": "pH 7.4"}}}
{"smiles": "CSCC[C@@H](NC(=O)[C@@H](Cc1ccccc1)NC(=O)[C@@H](CC(N)=O)NC(=O)[C@@H](CCCNC(=N)N)NC(=O)[C@@H](CO)NC(=O)[C@@H](Cc1c[nH]c2ccccc12)NC(=O)[C@@H](CC(=O)O)NC(=O)[C@@H](CCCNC(=N)N)NC(=O)[C@@H](Cc1c[nH]c2ccccc12)NC(=O)[C@@H](CCCNC(=N)N)NC(=O)[C@@H](CO)NC(=O)[C@@H](CCCNC(=N)N)NC(=O)CNC(=O)[C@H](NC(=O)[C@@H](CCCNC(=N)N)NC(=O)[C@@H](CO)NC(=O)[C@H](NC(=O)[C@@H](CCCNC(=N)N)NC(=O)[C@H](NC(C)=O)[C@H](C)O)C(C)C)[C@H](C)O)C(=O)N[C@H](CCCNC(=N)N)C(=O)N[C@H](C)C(=O)N[C@H](C)C(=O)N[C@H](CCCN)C(=O)N[C@H](CCCN)C(=O)N[C@H](CCCN)C(=O)N[C@H](CCCN)C(=O)N[C@H](CCCN)C(=O)N[C@H](CCCN)C(=O)N[C@H](CCCN)C(=O)N[C@H](CCCN)C(N)=O", "note": "[Peptide 32, Ac-trvsrtgrsrwrdwsrnfmraaoooooooo-NH2]", "values": [{"measurement": "Minimum inhibitory concentration (MIC) S. aureus", "setting": "S. aureus (Rosenbach)", "value": 2, "unit": "µM"}, {"measurement": "Minimum inhibitory concentration (MIC) S. dublin", "setting": "S. dublin (Lane)", "value": 2, "unit": "µM"}, {"measurement": "Minimum bactericidal concentration (MBC) for P. acnes", "setting": "P. acnes, ATCC 6919", "value": 2, "unit": "micromolar units"}, {"measurement": "Hemolytic effect on human red blood cells", "setting": "human red blood cells", "value": 2, "unit": "%"}, {"measurement": "MIC P. acnes", "setting": "[1]", "value": 3, "unit": "µg·days/mL"}, {"measurement": "Minimum inhibitory concentration (MIC) E. coli Top10", "setting": "E. coli K12 TOP10", "value": 2, "unit": "µM"}, {"measurement": "Minimum inhibitory concentration (MIC) E. coli 55099", "setting": "[2]", "value": 1, "unit": "µM"}, {"measurement": "MIC S. aureus", "setting": "[3]", "value": 3, "unit": "b ug/mL"}, {"measurement": "MIC S. dublin", "setting": "Salmonella dublin (Lane)", "value": 3, "unit": "b ug/mL"}]}
